Some results are limits rather than exact numbers.

Protein sequences, listed by entry. Tags and fused reporters are not part of them.
UniProt P21452, whole entry: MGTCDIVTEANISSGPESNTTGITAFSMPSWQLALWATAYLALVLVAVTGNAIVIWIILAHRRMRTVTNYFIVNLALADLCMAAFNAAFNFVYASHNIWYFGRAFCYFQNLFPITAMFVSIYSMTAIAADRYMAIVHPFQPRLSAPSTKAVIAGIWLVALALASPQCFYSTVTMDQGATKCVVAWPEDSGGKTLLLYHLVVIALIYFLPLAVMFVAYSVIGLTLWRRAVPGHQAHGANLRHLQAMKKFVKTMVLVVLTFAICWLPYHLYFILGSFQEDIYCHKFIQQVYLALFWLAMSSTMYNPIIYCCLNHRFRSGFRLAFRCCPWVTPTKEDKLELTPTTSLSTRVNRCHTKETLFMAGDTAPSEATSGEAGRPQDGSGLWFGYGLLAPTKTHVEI
UniProt P25103, whole entry: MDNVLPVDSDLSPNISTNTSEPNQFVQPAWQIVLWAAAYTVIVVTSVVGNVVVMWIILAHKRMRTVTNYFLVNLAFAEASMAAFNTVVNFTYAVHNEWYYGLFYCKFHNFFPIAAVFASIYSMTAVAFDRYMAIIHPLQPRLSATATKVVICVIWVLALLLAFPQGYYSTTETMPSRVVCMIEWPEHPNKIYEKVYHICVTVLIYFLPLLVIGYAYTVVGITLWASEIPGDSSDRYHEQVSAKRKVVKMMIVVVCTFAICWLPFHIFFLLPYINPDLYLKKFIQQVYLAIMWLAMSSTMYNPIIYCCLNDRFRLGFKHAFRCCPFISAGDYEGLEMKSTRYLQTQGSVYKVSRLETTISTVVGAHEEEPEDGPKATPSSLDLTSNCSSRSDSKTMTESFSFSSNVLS

One assay addresses T1, human neurokinin 2 (NK2) receptor (Homo sapiens, UniProt P21452).
T1 construct: expressed in transfected cells; host or cells: Chinese Hamster ovary (CHO) cells
The assay is described as follows: Neurokinin receptor binding assay, NK2 ([3H]-Neurokinin A, CHO membranes). The settings on record: racemic compounds except specifically defined enantiomers. How it is done: (§1) Chinese Hamster ovary (CHO) cells transfected with the coding regions for the human neurokinin 1 (NK1) of the human neurokinin 2 (NK2) receptors are grown in Dulbecco's minimal essential medium supplemented with 10% fetal calf serum, 0.1 mM non-essential amino acids, 2 mM glutamine, 100 units/ml of penicillin and streptomycin, and 0.8 mg of G418/ml at 37° C. in a humidified atmosphere containing 5% CO2.
(§2) Cells are harvested by centrifugation and washed in RPMI media at […] for 5 minutes. The pellet is resuspended inTris-HCl (pH7.4) containing 1 uM phosphoramidon and 4 ug/ml of chymostatin at a cell density of 30×10^6 cells/ml. The suspension is then homogenized in a Brinkman Polytron (setting 5) for 30-45 seconds. The homogenate is centrifuged at 800×g for 5 min at 4° C. to collect unbroken cells and nuclei. The supematant is centrifuged in a Sorvall RC5C at 19,000 rpm ([…]) for 30 min at 4° C. The pellet is resuspended, an aliquot is removed for a protein determination (BCA) and washed again. The resulting pellet is stored at -80° C.
Binding is initiated by the addition of 100 μl of membrane (10-20 μg) containing the human NK-1 or NK-2 receptor in a final volume of 200 μl. After 40 minutes at room temperature, the reaction is stopped by rapid filtration onto Whatman GF/C filters which have been presoaked in 0.3% polyethylenimine. Filters are washed 2 times with 3 ml of 50 mM Tris-HCl (pH7.4).
Usually Ki stands for a dissociation constant, usually derived from enzyme kinetics or from competition with a known ligand. A lower Ki goes with tighter binding. Molecule `Cc1cc(C)cc(C(=O)N2CCN(C(=O)CNC3CCN(Cc4ccccc4)CC3)C(c3ccc(Cl)c(Cl)c3)C2)c1` (stereo not drawn) displayed a Ki of 4.3 nM.

Molecule `O=C(c1cc(C(F)(F)F)cc(C(F)(F)F)c1)N1CCN(C(=O)CNC2CCN(Cc3ccccc3)CC2)C(c2ccc(Cl)c(Cl)c2)C1` (stereo not drawn) yielded a Ki of 11.4 nM. This Ki lies about 2.7-fold higher than the previous one.

Take `Cc1cc(C)cc(C(=O)N2CCN(C(=O)CNC3CCN(Cc4ccccc4)CC3)C(c3ccc(Cl)c(Cl)c3)C2)c1` (single isomer, unassigned): the Ki was more than 66 nM.

`O=C(c1cc(C(F)(F)F)cc(C(F)(F)F)c1)N1CCN(C(=O)CNC2CCN(Cc3ccccc3)CC2)C(c2ccc(Cl)c(Cl)c2)C1` (single isomer, unassigned) gave a Ki of 355 nM.

The target in a further assay is T2, human neurokinin 1 (NK1) receptor (Homo sapiens, UniProt P25103).
T2 construct: expressed in transfected cells; host or cells: Chinese Hamster ovary (CHO) cells
The assay is described as follows: Neurokinin receptor binding assay, NK1 ([3H]-Substance P, CHO membranes). Conditions: racemic compounds except specifically defined enantiomers. The method, then: as §1, §2
Binding is initiated by the addition of 100 μl of membrane (10-20 μg) containing the human NK-1 or NK-2 receptor in a final volume of 200 μl. After 40 minutes at room temperature, the reaction is stopped by rapid filtration onto Whatman GF/C filters which have been presoaked in 0.3% polyethylenimine. […]
Take `O=C(c1cc(C(F)(F)F)cc(C(F)(F)F)c1)N1CCN(C(=O)CNC2CCN(Cc3ccccc3)CC2)C(c2ccc(Cl)c(Cl)c2)C1` (stereo not drawn): the affinity corresponds to a Ki of 4.9 nM.

As to `O=C(c1cc(C(F)(F)F)cc(C(F)(F)F)c1)N1CCN(C(=O)CNC2CCN(Cc3ccccc3)CC2)C(c2ccc(Cl)c(Cl)c2)C1` (single isomer, unassigned), the Ki was 2.2 nM.

Values taken from patent US5981520A, “Piperazino derivatives as neurokinin antagonists” (Schering Corporation, priority 1998, dated 1999).
